Reference: US20070036775A1, “Method of modulating or examining Ku70 levels in cells” (priority 2001, published 2007)

Test system: HEK293T cells
Assay: Bax-induced apoptosis in HEK293T cells (pcDNA3-Bax transfection)
Format: cell-based
Conditions: HEK293T cells co-transfected with pcDNA3-Bax and Ku70 construct, 24 hours
Protocol: FIG. 1. […] FIG. 1A: Scheme of Ku70 full-length, Bax-suppressor clones (clone 1 and 2) obtained by yeast-based functional screening using pGilda-Bax plasmid for Bax expression as reported (Xu, et al., 2000). FIG. 1B: Ku70 suppresses Bax-induced apoptosis in HEK293T cells as well as XIAP. 10^6 cells were transfected with 1.0 μg of pcDNA3 (Control) or pcDNA3-Bax (Bax) together with 0.5, 1.0, or 2.0 μg of pCMV-2B-Ku70 wt (Ku70 wt) or pcDNA3-Myc-XIAP (XIAP). In “Bax+Vector” group, 1.0 μg pcDNA3-Bax and 2 ug of pCMV-2B were used, respectively (Control and Bax+Vector). All the cells were also co-transfected with 0.5 μg pEGFP for the marking of transfected cells. Apoptosis in the transfected cells was analyzed 24 hours following transfection with Hoechst dye staining of the nucleus as described in Experimental Procedure. FIG. 1C: Time course of the suppression of Bax-induced apoptosis by Ku70 and XIAP in HEK293T cells. […] Apoptosis in the transfected cells was analyzed at 24 hours (Control) or the indicated time points following transfection. […] After 24 hours, apoptotic cells were counted as described in FIG. 1B. […] The number of apoptotic cells was determined as described in FIG. 1B. […] Apoptosis in the transfected cells was analyzed at the indicated periods following transfection as described in FIG. 1C. […]

Substance: Ku70: human full length Ku70, 70 kDa subunit of Ku-complex (609 amino acids), expressed from pCMV-2B plasmid
- effect on Bax-induced apoptosis: suppressed Bax-induced apoptosis
